# Measured values as given in published antibiotic growth screens (doi:10.1038/s41589-023-01349-8).
# This is one part of the list.
# Test system: A. baumannii ATCC 17978
# Experiment: relative growth (fraction of control); higher = less inhibition
# Settings: 50 µM
row,Compound,relative growth
1,CC/N=c1\sc(C(=O)OC)cc(=O)n1CC,0.968
2,COc1ccc(S(=O)(=O)Nc2ccc3c(c2)[C@H]2C[C@H](CC(=O)NCC4CC4)O[C@H](CO)[C@H]2O3)cc1,1.04
3,CCCNC(=O)N1C[C@H](O)COC[C@H]2O[C@H](CC(=O)N3CCN(C)CC3)CC[C@@H]21,1.03
4,CCNC(=O)C[C@H]1C=C[C@@H](NC(=O)C2CC2)[C@@H](CO)O1,1.08
5,CCOC(=O)c1ccc(N)cc1,0.865
6,O=C(C[C@@H]1CC[C@@H]2[C@H](COC[C@@H](O)CN2C(=O)Nc2ccc(Cl)c(Cl)c2)O1)NCc1ccncc1,0.92
7,O=C1N[C@@H](Cc2c[nH]c3ccccc23)COC(=O)[C@H](Cc2ccc(F)cc2)CCC=CC[C@H]1CC(=O)N(CCO)Cc1ccccc1,1.25
8,COc1ccc(S(=O)(=O)N(C)C[C@@H]2Oc3c(NC(=O)Nc4cccc5ccccc45)cccc3C(=O)N([C@@H](C)CO)C[C@H]2C)cc1Cl,0.932
9,O=C(C[C@@H]1C=C[C@H](NC(=O)c2ccc(F)cc2)[C@@H](CO)O1)NCc1ccncn1,1.04
10,COc1c(C)cnc2c1c(=O)n(CC(N)=O)c(=O)n2C,0.835
11,CC(C)CC#Cc1ccc2c(c1)O[C@H](CN(C)C(=O)c1cnccn1)[C@H](C)CN([C@@H](C)CO)S2(=O)=O,0.905
12,COc1ccccc1OCC(O)CN1CCN(CC(=O)Nc2c(C)cccc2C)CC1.Cl.Cl (stereo not drawn),1.14
13,Cc1cc(C)n(-c2n[nH]c(=S)n2N)n1,0.94
14,C[C@@H]1CN([C@H](C)CO)S(=O)(=O)c2ccc(C#CCN(C)C)cc2O[C@H]1CN(C)C,0.837
15,O=C(C[C@H]1CC[C@@H]2[C@H](COC[C@@H](O)CN2S(=O)(=O)c2ccc(Cl)cc2)O1)N[C@@H]1CCN(Cc2ccccc2)C1,1.03
16,N=C(N)Nc1nc2ccccc2[nH]1,0.969
17,COc1cccc(CNc2nn[nH]n2)c1OC,0.947
18,O=c1/c(=C\c2ccc(F)cc2)sc2n1CCN=2,0.933
19,COC(=O)CCC(C)C1CCC2C3CC[C@@H]4C[C@H](O)CC[C@]4(C)C3C[C@H](O)[C@]12C (stereo partly drawn),0.919
20,CC(C)CC#Cc1cnc2c(c1)C(=O)N([C@@H](C)CO)C[C@@H](C)[C@H](CN(C)C(=O)CN1CCOCC1)O2,1.05
21,O=C(C[C@@H]1CC[C@@H]2[C@H](COC[C@@H](O)CN2C(=O)Nc2ccc3c(c2)OCO3)O1)N1CCN(c2ccccc2)CC1,1.1
22,Cc1ccc(S(=O)(=O)NC(=O)NN2CCCCCC2)cc1,0.977
23,CCOC(=O)/C(C#N)=C1/C=CN(C)C=N1,1.14
24,O=C(C[C@H]1CC[C@H]2[C@@H](COC[C@@H](O)CN2C(=O)Nc2ccc(Cl)cc2)O1)NC1Cc2ccccc2C1,0.998
25,O=c1[nH]c(=O)n([C@H]2C[C@H](O)[C@@H](CO)O2)cc1Br,1.11
26,CN(C)Cc1cn(CC[C@H]2CC[C@@H](NS(=O)(=O)c3ccccc3)[C@H](CO)O2)nn1,0.968
27,O=c1[nH]c2ccccc2c(O)c1[I+]c1ccccc1,0.95

row,Compound,relative growth
1,C[C@@H]1CN([C@@H](C)CO)S(=O)(=O)c2ccc(/C=C/c3ccccc3)cc2O[C@@H]1CN(C)C(=O)CN1CCOCC1,1.1
2,C[C@H](CO)N1C[C@H](C)[C@@H](CN(C)C(=O)c2cnccn2)Oc2ncc(C#CCN(C)C)cc2C1=O,1.13
3,CC(=O)CC/C=C(\C)CC/C=C(\C)CC/C=C(\C)CCC=C(C)C,1.29
4,Clc1ccc(CSC(Cn2ccnc2)c2ccc(Cl)cc2Cl)cc1.O=[N+]([O-])O (stereo not drawn),1.26
5,CCNC(=O)C[C@@H]1C=C[C@H](NC(=O)C2CC2)[C@H](CO)O1,0.895
6,COc1ccc(NC(=O)N2C[C@@H](O)COC[C@@H]3O[C@H](CC(=O)NCc4ccccc4OC)CC[C@H]32)cc1,1.04
7,COc1ccccc1C#Cc1ccc2c(c1)O[C@@H](CN(C)Cc1ccncc1)[C@@H](C)CN([C@H](C)CO)S2(=O)=O,1.07
8,COc1cccc(OC)c1O,1.01
9,CO[C@H](CN(C)S(=O)(=O)c1cccc(Cl)c1)[C@H](C)CN([C@H](C)CO)S(=O)(=O)c1ccc(Cl)cc1,0.901
10,O=C(C[C@H]1C[C@@H]2c3cc(NC(=O)C4CCOCC4)ccc3O[C@@H]2[C@@H](CO)O1)NCc1ccc2c(c1)OCO2,1.15
11,CNC(=O)[C@H]1O[C@H](n2cnc3c(NCc4cccc(I)c4)nc(Cl)nc32)[C@@H](O)[C@@H]1O,1
12,C[C@@H](NC(=O)C[C@H]1C=C[C@@H](NC(=O)CN2CCOCC2)[C@@H](CO)O1)c1ccccc1,0.981
13,O=C(O)/C=C/C(=O)NC1CC1,1.02
14,NC(=O)N[C@@H]1CC(=O)N(c2ccccc2)C1,0.933
15,O=C(C[C@H]1CC[C@@H]2[C@H](COC[C@H](O)CN2C(=O)c2ccccc2)O1)N1CCOCC1,1.02
16,O=C(Nc1cc(C(=O)Nc2ccc(S(=O)(=O)O)cc2S(=O)(=O)O)cc(C(=O)Nc2ccc(S(=O)(=O)O)cc2S(=O)(=O)O)c1)Nc1cc(C(=O)Nc2ccc(S(=O)(=O)O)cc2S(=O)(=O)O)cc(C(=O)Nc2ccc(S(=O)(=O)O)cc2S(=O)(=O)O)c1,0.965
17,Nc1ccc2cc3ccc(N)cc3nc2c1.O=S(=O)(O)O,0.623
18,COc1cc2nc(N3CCN(C(=O)C4COc5ccccc5O4)CC3)nc(N)c2cc1OC.CS(=O)(=O)O (stereo not drawn),1.04
19,CC(C)N1C(=O)[C@@H]2[C@@H](C1=O)[C@@H]1C=C[C@@H]2O1,0.93
20,COCCCNc1ncnc(N)c1[N+](=O)[O-],1.03
21,COc1cc(O)c2c(=O)c(O)c(-c3ccccc3)oc2c1,1.06
22,CC/C(=C(/CC)c1ccc(O)cc1)c1ccc(O)cc1,0.741
23,C1CNCCN1.C[C@]12CCC3c4ccc(OS(=O)(=O)O)cc4CCC3C1CCC2=O (stereo partly drawn),1.1
24,COC(=O)C1=CC(CCCO)=C[C@@H](c2ccc(CN3CCCC3)cc2)N(Cc2sc3ccccc3c2Cl)C=C1C(=O)OC,0.974
25,CCNC(=O)C[C@@H]1CC[C@@H]2[C@H](COC[C@@H](O)CN2C(=O)Nc2c(C)noc2C)O1,0.919
26,C#CCN([C@H](/C=C/C1CC1)[C@@H](O)CCn1cc(CCC(=O)NO)nn1)[C@@H](Cc1ccccc1)C(=O)OC,1.07
